Here are results for one compound from ChEMBL document CHEMBL4265940, “Synthesis of scutellarein derivatives with antiproliferative activity and selectivity through the intrinsic pathway” (Eur J Med Chem, 2018).

Molecules are shown by their SMILES. Bounds are passed on as bounds.

For one assay, the system named is A549. Put plainly: Antiproliferative activity against human A549 cells after 72 hrs by MTT assay. The assay is classed as functional, cell-based. Summed up:
(§1)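 Log-phase tumour cells seeded and held 24 h at 37 °C in humidified 5% CO2, then exposed to test agents for 72 h. MTT (5 mg/mL stock) added for a further 4 h, formazan dissolved in DMSO with 10 min shaking at room temperature, optical density read, IC50 calculated.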
On the technique in general: Formazan colour is commonly taken as a measure of viable cells.

For the next assay, the system named is MCF7. Description: Antiproliferative activity against human MCF7 cells after 72 hrs by MTT assay. It is filed as functional, cell-based. The gist of the method: as §1

As usually defined, the IC50 is the concentration that gives 50% inhibition. Higher therefore signals weaker potency in that assay. Turning to `O=C(O)c1ccc(N(CCCl)CCCl)cc1`, the IC50 in the assay with A549 and with MCF7 was over 50 µM throughout.
